This is an account of results in patent US7736646B2, “Methods for modulating angiogenesis with apelin compositions” (Arizona Board of Regents on behalf of the University of …, priority 2003, dated 2010).

For this data set, the system named is frog embryos. Nature of the data set: Growth factor-soaked beads implanted in frog embryos, vascular outgrowth by erg in situ hybridization. Conditions: beads soaked in apelin peptide 0.1 mg/ml, mutated apelin peptide 0.25 mg/ml, BSA 1 mg/ml or rm VEGF-164 0.25 mg/ml; implanted stage 24-26, assayed stage 35-37. The protocol:
Beads were microsurgically implanted in an avascular region, the posterior lateral mesoderm, of stage 24-26 embryos. Embryos were cultured in 0.2×MMR until stage 35-37, at which time they were prepared for whole mount in situ hybridization analysis as described in Example 2. The embryonic vascular system was visualized using an antisense probe directed against transcripts encoding the Xenopus vascular marker, erg (Baltzinger et al., 1999, Dev. Dyn. 216:420-33).

On to apelin-13, for which the “outgrowth of developing blood vessels toward soaked beads” value is reported as “outgrowth of developing blood vessels toward the apelin-soaked beads”.
